# Assay results reported in paper PMC4749533, “Scintillation proximity assay (SPA) as a new approach to determine a ligand’s kinetic profile. A case in point for the adenosine A1 receptor” (Purinergic Signalling, 2015).
# Sequences of proteins named here, by UniProt entry; tags and fusion partners are left off.
# UniProt P30542, whole entry: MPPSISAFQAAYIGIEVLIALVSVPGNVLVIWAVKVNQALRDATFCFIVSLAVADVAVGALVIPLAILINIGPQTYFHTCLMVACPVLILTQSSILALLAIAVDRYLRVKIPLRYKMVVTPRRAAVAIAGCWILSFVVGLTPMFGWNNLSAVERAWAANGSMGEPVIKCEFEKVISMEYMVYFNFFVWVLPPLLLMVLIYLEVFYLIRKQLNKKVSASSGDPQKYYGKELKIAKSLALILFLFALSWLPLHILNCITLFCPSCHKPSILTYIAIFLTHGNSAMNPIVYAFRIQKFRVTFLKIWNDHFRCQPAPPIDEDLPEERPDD
# Legend:
# [1] = target: T1, human adenosine A1 receptor (hA1R) (Homo sapiens, UniProt P30542); experiment: Competition association with [3H]-DPCPX, SPA technology; format: binding; conditions: 1/k off, 28 °C, 1 mM GTP present for LUF5834, CCPA, NECA
# T1 construct: Steve Hill (University of Nottingham, UK); host or cells: CHO cells stably expressing hA1R; membrane preparation
# Procedure: (§1) The binding kinetics of unlabeled ligands was quantified using the competition association assay based on the theoretical framework by Motulsky and Mahan.
# The membrane-bead mixture was prepared as described under “Radioligand displacement experiments.” Once the membrane-bead mixture was added to the wells of an Isoplate-96 Microplate, measurements of radioligand bound to the receptor were started immediately and continued every 30 s for 2 h, using the 2450 MicroBeta^2 Plate Counter.
# [2] = target: T1, human adenosine A1 receptor (hA1R); experiment: Competition association with [3H]-DPCPX, filtration assay; format: binding; conditions: 1/k off, 28 °C, 1 mM GTP present for LUF5834, CCPA, NECA
# Procedure: as §1
# The competition association assay was initiated by adding membrane aliquots (5 μg per well) at different time points for a total of 2 h in the absence or presence of competing ligand.
smiles,measurement,setting,value
"CCNC(=O)[C@H]1O[C@@H](n2cnc3c(N)ncnc32)[C@H](O)[C@@H]1O [NECA, 5′-N-ethylcarboxamidoadenosine]",SPA RT,[1],1.9 ± 0.02 min
same,Filtration assay RT,[2],1.7 ± 0.1 min
